Screens deposited in PubChem BioAssay by National Center for Advancing Translational Sciences (NCATS).
In the library only some 16% were active in any assay of this set; here they are far more common.
DT40 TDP1 no CPT = qHTS for Inhibitors of human tyrosyl-DNA phosphodiesterase 1 (TDP1): qHTS in cells in absence of CPT; actives 15% (n = 420,000); AID 686978, 2013; DT40 Tdp1-/- hTDP1 cells, no CPT, ATP luminescence, 48 h; Potency, µM (highest dose often 46.2 µM), for the others: at the top dose activity change, negative = growth inhibition, usual class: inhibitors; note: potency is the fitted concentration of half-maximal effect; % is set by controls: 0 for no effect and ±100 for the full control effect; nearly all actives have a fitted effect of over 55% in size
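Chicken DT40 Tdp1-/- cells complemented with human TDP1, screened without camptothecin (DMSO vehicle only), 400 cells/well. Compounds pin-transferred, cells incubated at 37 °C for at least 48 hr. Growth read as ATP-dependent luminescence (CellTiter-Glo, 30 min at RT).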
uPA generation = cell surface uPA generation inhibition; cell surface uPA generation assay, qHTS; Potency, µM (series often up to 38.3 µM), inactives show top-dose activity change, negative = inhibition, usual class: inhibitors; actives 0.31% (n = 330,000); AID 540303; active = well fitted inhibition curve with a large enough effect; inconclusive = small, poorly fitted or top-dose-only effect; inactive = no such curve, though single readings can be large or run the other way; tested in mouse RAW 264.7 cells; note: potency is the fitted concentration of half-maximal effect; % is set by controls: 0 for no effect and ±100 for the full control effect; nearly all actives have a fitted effect of over 55% in size
DT40 TDP1 CPT = DT40-hTDP1 cell growth loss with CPT. chicken DT40 Tdp1-/-;hTDP1 cells + 20 nM CPT, ATP luminescence, 48 h. AID 686979. actives 12% (n = 420,000). Potency, µM (doses to about 46.2 µM), inactives show top-dose activity change, negative = growth inhibition, most hits filed as inhibitors; note: potency is the fitted concentration of half-maximal effect; % is set by controls: 0 for no effect and ±100 for the full control effect; nearly all actives have a fitted effect of over 55% in size
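Chicken DT40 Tdp1-/- cells complemented with human TDP1, 400 cells/well, exposed to compounds plus 20 nM camptothecin for at least 48 h at 37 C; viability read as ATP content by CellTiter-Glo luminescence.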
TDP1 inh = TDP1 (human) enzyme inhibition; actives 0.28% (n = 350,000); recombinant TDP1, AlphaScreen DNA substrate cleavage; Q9NUW8; Potency, µM (top dose mostly 130 µM), inactives show top-dose activity change, negative = inhibition, hits mostly inhibitors; note: potency is the fitted concentration of half-maximal effect; % is set by controls: 0 for no effect and ±100 for the full control effect; nearly all actives have a fitted effect of over 40% in size
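Signal: AlphaScreen proximity between streptavidin donor and anti-FITC acceptor beads on intact substrate. Reaction: Tdp1 1 nM, substrate 15 nM final, 5 min RT after 15 min compound preincubation.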
miR-21 reporter = raises the signal of a miR-21 reporter; Potency, µM (doses to about 38.3 µM), inactives show top-dose reporter change, positive = more light; HeLa miR-21 FLuc reporter, luciferase, 48 h; AID 2288; 340,000 tested, under 10 active; active = well fitted rising curve with a large enough effect; inconclusive = small, poorly fitted or top-dose-only effect; inactive = no such curve, though single readings can be large or run the other way;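 further: % of control where 0% means no effect; miR-21 action dims this reporter so a rising signal means less miR-21 action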
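Using DMEM plus 10% FBS, HeLa miR-21-FLuc cells are incubated with test compounds (final up to about 40uM) for 48 hours; firefly luciferase signal is then imaged following reagent-mediated lysis.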
* hit, by the source's call; ? = inconclusive; . = no result; [ ] = dose if it differs, or a comment. Unless noted, calls come from the whole dose curve; as a rule, active = well fitted curve in the direction sought with a large enough effect; inconclusive = small, poorly fitted or top-dose-only effect, or another doubt; inactive = no such curve, though single readings can be large; an effect the other way counts as inactive or inconclusive.

item	SMILES	DT40 TDP1 no CPT	miR-21 reporter	uPA generation
1	COc1cc(O)cc2c1[C@@H]1Oc3c(ccc(O)c3CC=C(C)C)[C@@H]1CO2	23µM*	.	13%
2	O=C(/C=C/C(=O)Oc1ccccc1C(=O)O)Oc1ccccc1C(=O)O	1%	.	.
3	COc1cc([C@@H]2CC=C(C(=O)O)[C@H](c3ccc(C)cc3)N2S(=O)(=O)c2ccc(C)cc2)cc(OC)c1OC	-11%	.	11%
4	Cc1ccc(O)c(NC(=O)c2cccc(NC(=O)c3ccco3)c2)c1	23µM*	-25%	-3%
5	O=C(Nc1cccc(S(=O)(=O)c2cccc(NC(=O)c3ccco3)c2)c1)c1ccco1	13µM*	25%	0%
6	O=C(Nc1cccc(S(=O)(=O)N2CCCC2)c1)c1ccco1	?	.	-2%
7	CC(C)(C)NC(=O)c1cccc(NC(=O)c2ccc(NC(=O)c3ccco3)cc2)c1	?	3%	-19%
8	Cc1cc(C)cc(NC(=O)c2cccc(NC(=O)c3ccco3)c2)c1	29µM*	.	-3%

item	DT40 TDP1 CPT	TDP1 inh
1	18µM*	.
2	-23%	7%[56.1 µM]
3	-6%	2%
4	?	5%
5	?	.
6	1%	1%
7	13µM*	7%
8	?	.

item	SMILES	DT40 TDP1 no CPT	miR-21 reporter	uPA generation
9	C=CCN(C(=O)CCC(=O)Nc1cc(C)on1)C(C(=O)NC(C)(C)C)c1ccc(OC)cc1 (centres undefined)	-3%	-1%	.
10	Cn1c(NC(=O)COc2ccccc2)cc(=O)n(C)c1=O	-13%	1%	8%
11	COc1cc(C(c2sc3nc(C)nn3c2O)N2CCc3ccccc3C2)cc(OC)c1OC (centres undefined)	10µM*	0%	13%
12	Cc1nc2sc(C(c3ccco3)N3CCN(C(c4ccccc4)c4ccccc4)CC3)c(O)n2n1 (centres undefined)	18µM*	6%	?
13	Clc1cccc(C2CCN(Cc3nc(CC4CC4)no3)C2)c1 (centres undefined)	-15%	-21%	0%
14	COc1ccc(CC(=O)N(Cc2ccccc2)c2ccc(C)cc2)cc1S(=O)(=O)N1CCOCC1	16µM*	.	-5%
15	COc1ccc(C(=O)NCc2c(C)nn(Cc3ccccc3)c2C)cc1S(=O)(=O)N1CCOCC1	?	.	10µM*
16	COc1ccc(CC(=O)N(C)Cc2ccc(Cl)cc2)cc1S(=O)(=O)N1CCOCC1	?	.	3%

item	DT40 TDP1 CPT	TDP1 inh
9	2%	3%
10	?	0%
11	23µM*	1%
12	?	-7%
13	-11%	5%
14	18µM*	1%
15	10µM*	-1%
16	?	.

item	SMILES	DT40 TDP1 no CPT	miR-21 reporter	uPA generation
17	COc1ccc(S(=O)(=O)N2CCOCC2)cc1C(=O)NCc1c(C)nn(Cc2ccccc2)c1C	0%	.	8%
18	COc1ccc(CC(=O)N(C)Cc2ccc(C(C)(C)C)cc2)cc1S(=O)(=O)N1CCOCC1	29µM*	1%	-8%
19	CCC(=O)NC(c1ccco1)c1cc([N+](=O)[O-])c2cccnc2c1O (centres undefined)	.	.	.
20	Cn1ncc2c(Nc3ccc(Cl)cc3)ncnc21	?	-38%	4%
21	Cc1ccc(Nc2nc(NCCO)nc3c2cnn3C)cc1Cl	15µM*	23%	-2%
22	Cn1ncc2c(Nc3ccc(O)cc3)nc(Cl)nc21	-5%	-30%	1%
23	Cn1ncc2c(NCc3ccccc3Cl)nc(NCCO)nc21	?	-14%	.
24	CCCNc1nc(Nc2ccc(C)c(Cl)c2)c2cnn(C)c2n1	23µM*	11%	0%

item	DT40 TDP1 CPT	TDP1 inh
17	?	.
18	21µM*	6%
19	.	2%
20	?	0%
21	21µM*	.
22	-3%	-5%
23	?	6%
24	16µM*	.

item	SMILES	DT40 TDP1 no CPT	miR-21 reporter	uPA generation
25	Cn1ncc2c(Nc3cccc(Cl)c3)nc(Nc3cccc(Cl)c3)nc21	12µM*	22%	0%
26	CNc1nc(Nc2ccc(C)c(Cl)c2)c2cnn(C)c2n1	15µM*	8%	-19%
27	O=S(=O)(c1ccc(-n2cnnn2)cc1)N1CCN(c2cccc(C(F)(F)F)c2)CC1	-14%	-1%	.
28	C[C@@H]1CN([C@H](C)CO)C(=O)CCCn2nncc2CO[C@@H]1CN(C)C(=O)c1ccncc1	-5%	.	.
29	Nc1c(C(=O)OCC(=O)NCc2ccccc2)[nH]c(=O)[nH]c1=O	6%	-13%	3%
30	O=C(O)CSc1nnc(Cn2cnc3ccccc32)n1CCc1ccccc1	-3%	0%	2%
31	COc1ccc(N2CCN(C(=O)CSc3nc4[nH]ncc4c(=O)n3-c3cccc4ccccc34)CC2)cc1	7.3µM*	13%	.
32	COc1cc(NC(=O)CSc2nc3[nH]ncc3c(=O)n2-c2ccccc2)cc(OC)c1OC	26µM*	.	.

item	DT40 TDP1 CPT	TDP1 inh
25	16µM*	0%
26	23µM*	.
27	-8%	2%
28	-14%	.
29	-3%	1%
30	-2%	-4%
31	6.5µM*	5%
32	?	.

item	SMILES	DT40 TDP1 no CPT	miR-21 reporter	uPA generation
33	COc1cc2c(cc1OC)CN(C(=O)CSc1nc3[nH]ncc3c(=O)n1-c1ccccc1)CC2	-23%	-12%	17%
34	CCOc1ccc(C(=O)Cn2cnc3ccccc3c2=O)cc1	?	-50%	-4%
35	CCN(C1CCS(=O)(=O)C1)S(=O)(=O)c1cc(C)ccc1C (centres undefined)	2%	.	2%
36	CCCCn1c(N)c(C(=S)NC(=O)CC(C)C)c(=O)n(C)c1=O	?	0%	-3%
37	CN(Cc1ccc(Cl)c(Cl)c1)C(=O)C1CSC2(C)CCC(=O)N12 (centres undefined)	15µM*	.	16%
38	Brc1ccc(N/N=C(/N=Nc2nn[nH]n2)c2ccccc2)cc1	2.6µM*	?	?
39	COc1cc(/C=N/NC(=O)C(=O)/C=C2\NC(C)(C)Cc3ccccc32)ccc1O	?	14%	-9%
40	O=C(Nc1cccc2nsnc12)c1cc2c(cc1Cl)Sc1nccn1S2(=O)=O	?	.	1%

item	DT40 TDP1 CPT	TDP1 inh
33	2%	5%
34	?	.
35	11%	-1%
36	?	11%
37	15µM*	1%
38	2.9µM*	11%
39	?	5%
40	23µM*	.

item	SMILES	DT40 TDP1 no CPT	miR-21 reporter	uPA generation
41	O=C(Nc1cccc2nsnc12)c1cccnc1Cl	-26%	-13%	5%
42	Cc1cc(NC(=O)CSc2nnc(NCc3ccco3)s2)no1	19%	.	-17%
43	COc1ccc(-c2cc(-c3ccccc3)nc(SC(C)C(=O)O)c2C#N)cc1 (centres undefined)	26µM*	-14%	-2%
44	CCc1nnc(NC(=O)CSc2ccc(-c3ccc(F)cc3)nn2)s1	.	-12%	.
45	CCc1nnc(NC(=O)CSc2nc(-c3ccccc3)cc(-c3ccc(F)cc3)c2C#N)s1	?	1%	.
46	COc1ccc(CNC(=O)CSc2nc(-c3ccccc3)cc(-c3cccs3)c2C#N)cc1	?	-2%	0%
47	COc1ccc(-c2cc(-c3ccccc3)c(C#N)c(SCC(=O)O)n2)cc1	?	.	9%

item	DT40 TDP1 CPT	TDP1 inh
41	-24%	0%
42	1%	-8%
43	?	4%
44	.	-6%
45	9.2µM*	0%
46	15µM*	5%
47	-28%	.

Complete entries as entered above. Order of values: DT40 TDP1 no CPT | miR-21 reporter | uPA generation | DT40 TDP1 CPT | TDP1 inh
Cc1ccc(O)c(NC(=O)c2cccc(NC(=O)c3ccco3)c2)c1 is entered as 23µM* | -25% | -3% | ? | 5%
CCc1nnc(NC(=O)CSc2ccc(-c3ccc(F)cc3)nn2)s1 is entered as . | -12% | . | . | -6%
Cn1c(NC(=O)COc2ccccc2)cc(=O)n(C)c1=O is entered as -13% | 1% | 8% | ? | 0%
Cc1cc(C)cc(NC(=O)c2cccc(NC(=O)c3ccco3)c2)c1 is entered as 29µM* | . | -3% | ? | .
Cc1nc2sc(C(c3ccco3)N3CCN(C(c4ccccc4)c4ccccc4)CC3)c(O)n2n1 (centres undefined) is entered as 18µM* | 6% | ? | ? | -7%
